Some results for these compounds are left out of this collection, so the calls shown say nothing about other tests.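 Growth conditions: 96-well plates. Treatment: test compound, 48 hours, 5 concentrations. Analysis: linear interpolation between bracketing concentrations; unreached endpoints set to highest concentration. TGI marks complete inhibition of growth.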
Legend:
Assay in all cases: NCI-60 cell line screen, 48 h
[1] = tested on: 786-0 renal
[2] = tested on: A498 renal
[3] = tested on: A549 NSCLC
[4] = tested on: ACHN renal
[5] = tested on: BT-549 breast
[6] = tested on: CCRF-CEM leukemia
[7] = tested on: COLO 205 colon
[8] = tested on: DU-145 prostate
[9] = tested on: EKVX NSCLC
[10] = tested on: HCC-2998 colon
[11] = tested on: HCT-116 colon
[12] = tested on: HCT-15 colon
[13] = tested on: HL-60(TB) leukemia
[14] = tested on: HOP-62 NSCLC
[15] = tested on: HS 578T breast
[16] = tested on: HT29 colon
[17] = tested on: IGROV1 ovarian
[18] = tested on: K-562 leukemia
[19] = tested on: KM12 colon
[20] = tested on: LOX IMVI melanoma
[21] = tested on: M14 melanoma
[22] = tested on: MALME-3M melanoma
[23] = tested on: MCF7 breast
[24] = tested on: MDA-MB-435
[25] = tested on: MDA-N
[26] = tested on: MOLT-4 leukemia
[27] = tested on: NCI-H226 lung
[28] = tested on: NCI-H23 lung
[29] = tested on: NCI-H322M lung
[30] = tested on: NCI-H460 lung
[31] = tested on: NCI-H522 lung
[32] = tested on: NCI/ADR-RES ovarian
[33] = tested on: OVCAR-3 ovarian
[34] = tested on: OVCAR-4 ovarian
[35] = tested on: OVCAR-5 ovarian
[36] = tested on: OVCAR-8 ovarian
[37] = tested on: PC-3 prostate
[38] = tested on: RPMI-8226 leukemia
[39] = tested on: RXF 393 renal
[40] = tested on: SF-268 CNS
[41] = tested on: SF-295 CNS
[42] = tested on: SK-MEL-2 melanoma
[43] = tested on: SK-MEL-28 melanoma
[44] = tested on: SK-MEL-5 melanoma
[45] = tested on: SK-OV-3 ovarian
[46] = tested on: SN12C renal
[47] = tested on: SNB-19 CNS
[48] = tested on: SNB-75 CNS
[49] = tested on: SR leukemia
[50] = tested on: SW-620 colon
[51] = tested on: T-47D breast
[52] = tested on: TK-10 renal
[53] = tested on: U251 CNS
[54] = tested on: UACC-257 melanoma
[55] = tested on: UACC-62 melanoma
[56] = tested on: UO-31 renal

Question: For `CC#CC(O)(C(=O)OC1CCN(C)CC1)c1ccccn1` (stereo unspecified), which TGI [1] is on record?
Answer: The TGI was > 100 µM.

Question: What about the TGI [2] of the same compound?
Answer: The TGI was > 100 µM.

Question: What about the TGI [3] of the same compound?
Answer: The TGI was > 100 µM.

Question: And the TGI [4]?
Answer: The TGI was > 100 µM.

Question: And the TGI [5]?
Answer: Its TGI is > 100 µM.

Question: And the TGI [6]?
Answer: Its TGI is > 100 µM.

Question: And the TGI [7]?
Answer: Its TGI is > 100 µM.

Question: What about the TGI [8] of the same compound?
Answer: The TGI was > 100 µM.

Question: What about the TGI [9] of the same compound?
Answer: The TGI was 78.3 µM.

Question: And the TGI [10]?
Answer: Its TGI is > 100 µM.

Question: What about the TGI [11] of the same compound?
Answer: The TGI was > 100 µM.

Question: What about the TGI [12] of the same compound?
Answer: Its TGI is > 100 µM.

Question: What about the TGI [13] of the same compound?
Answer: Its TGI is > 100 µM.

Question: What about the TGI [14] of the same compound?
Answer: The TGI was > 100 µM.

Question: And the TGI [15]?
Answer: Its TGI is > 100 µM.

Question: And the TGI [16]?
Answer: Its TGI is > 100 µM.

Question: And the TGI [17]?
Answer: The TGI was > 100 µM.

Question: What about the TGI [18] of the same compound?
Answer: Its TGI is > 100 µM.

Question: And the TGI [19]?
Answer: The TGI was > 100 µM.

Question: What about the TGI [20] of the same compound?
Answer: The TGI was > 100 µM.

Question: And the TGI [21]?
Answer: Its TGI is > 100 µM.

Question: What about the TGI [22] of the same compound?
Answer: Its TGI is > 100 µM.

Question: And the TGI [23]?
Answer: Its TGI is 98.5 µM.

Question: What about the TGI [24] of the same compound?
Answer: The TGI was 45.4 µM.

Question: And the TGI [25]?
Answer: The TGI was > 100 µM.

Question: And the TGI [26]?
Answer: Its TGI is > 100 µM.

Question: What about the TGI [27] of the same compound?
Answer: Its TGI is > 100 µM.

Question: What about the TGI [28] of the same compound?
Answer: Its TGI is > 100 µM.

Question: And the TGI [29]?
Answer: The TGI was > 100 µM.

Question: What about the TGI [30] of the same compound?
Answer: Its TGI is > 100 µM.

Question: And the TGI [31]?
Answer: Its TGI is > 100 µM.

Question: What about the TGI [32] of the same compound?
Answer: The TGI was > 100 µM.

Question: What about the TGI [33] of the same compound?
Answer: Its TGI is > 100 µM.

Question: And the TGI [34]?
Answer: Its TGI is > 100 µM.

Question: And the TGI [35]?
Answer: The TGI was > 100 µM.

Question: And the TGI [36]?
Answer: The TGI was > 100 µM.

Question: And the TGI [37]?
Answer: Its TGI is > 100 µM.

Question: What about the TGI [38] of the same compound?
Answer: The TGI was > 100 µM.

Question: And the TGI [39]?
Answer: Its TGI is > 100 µM.

Question: And the TGI [40]?
Answer: Its TGI is > 100 µM.

Question: And the TGI [41]?
Answer: Its TGI is > 100 µM.

Question: What about the TGI [42] of the same compound?
Answer: Its TGI is > 100 µM.

Question: And the TGI [43]?
Answer: Its TGI is > 100 µM.

Question: And the TGI [44]?
Answer: Its TGI is > 100 µM.

Question: And the TGI [45]?
Answer: Its TGI is > 100 µM.

Question: What about the TGI [46] of the same compound?
Answer: Its TGI is 61.5 µM.

Question: What about the TGI [47] of the same compound?
Answer: The TGI was > 100 µM.

Question: And the TGI [48]?
Answer: Its TGI is > 100 µM.

Question: What about the TGI [49] of the same compound?
Answer: Its TGI is > 100 µM.

Question: And the TGI [50]?
Answer: The TGI was > 100 µM.

Question: What about the TGI [51] of the same compound?
Answer: The TGI was > 100 µM.

Question: And the TGI [52]?
Answer: Its TGI is > 100 µM.

Question: And the TGI [53]?
Answer: Its TGI is > 100 µM.

Question: And the TGI [54]?
Answer: Its TGI is > 100 µM.

Question: What about the TGI [55] of the same compound?
Answer: The TGI was > 100 µM.

Question: And the TGI [56]?
Answer: Its TGI is > 100 µM.
